Data reported in paper PMC5322338 (Scientific Reports, 2017).

By UniProt entry, the sequences of proteins in these tests, tags left out. Residues count along the entry.
UniProt Q99538, 18-323 limits assumed: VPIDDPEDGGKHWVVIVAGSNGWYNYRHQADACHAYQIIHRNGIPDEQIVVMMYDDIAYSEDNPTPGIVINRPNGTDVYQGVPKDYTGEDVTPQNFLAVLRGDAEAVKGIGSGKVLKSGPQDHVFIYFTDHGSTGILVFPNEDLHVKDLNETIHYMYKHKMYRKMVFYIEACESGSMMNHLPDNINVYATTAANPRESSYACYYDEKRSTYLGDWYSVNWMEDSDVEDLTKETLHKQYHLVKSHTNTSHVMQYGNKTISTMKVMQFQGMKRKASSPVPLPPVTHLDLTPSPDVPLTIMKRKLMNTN
UniProt P08253, 110-660 limits assumed: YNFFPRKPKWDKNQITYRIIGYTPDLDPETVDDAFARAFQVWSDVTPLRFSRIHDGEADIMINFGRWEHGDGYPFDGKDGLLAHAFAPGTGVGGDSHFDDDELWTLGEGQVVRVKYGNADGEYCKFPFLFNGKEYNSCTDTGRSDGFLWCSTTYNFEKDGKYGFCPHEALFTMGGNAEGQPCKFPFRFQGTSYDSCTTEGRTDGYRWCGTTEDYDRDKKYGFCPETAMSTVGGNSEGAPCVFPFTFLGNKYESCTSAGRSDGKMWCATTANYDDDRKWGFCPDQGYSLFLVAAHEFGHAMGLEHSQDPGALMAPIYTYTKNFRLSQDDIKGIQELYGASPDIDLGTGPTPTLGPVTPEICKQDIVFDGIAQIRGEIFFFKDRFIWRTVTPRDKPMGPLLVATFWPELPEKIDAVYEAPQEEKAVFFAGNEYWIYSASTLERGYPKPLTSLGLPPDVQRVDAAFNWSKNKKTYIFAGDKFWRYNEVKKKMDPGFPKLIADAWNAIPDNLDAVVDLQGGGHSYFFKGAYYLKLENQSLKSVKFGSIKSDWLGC
UniProt P14780, 107-707 limits assumed: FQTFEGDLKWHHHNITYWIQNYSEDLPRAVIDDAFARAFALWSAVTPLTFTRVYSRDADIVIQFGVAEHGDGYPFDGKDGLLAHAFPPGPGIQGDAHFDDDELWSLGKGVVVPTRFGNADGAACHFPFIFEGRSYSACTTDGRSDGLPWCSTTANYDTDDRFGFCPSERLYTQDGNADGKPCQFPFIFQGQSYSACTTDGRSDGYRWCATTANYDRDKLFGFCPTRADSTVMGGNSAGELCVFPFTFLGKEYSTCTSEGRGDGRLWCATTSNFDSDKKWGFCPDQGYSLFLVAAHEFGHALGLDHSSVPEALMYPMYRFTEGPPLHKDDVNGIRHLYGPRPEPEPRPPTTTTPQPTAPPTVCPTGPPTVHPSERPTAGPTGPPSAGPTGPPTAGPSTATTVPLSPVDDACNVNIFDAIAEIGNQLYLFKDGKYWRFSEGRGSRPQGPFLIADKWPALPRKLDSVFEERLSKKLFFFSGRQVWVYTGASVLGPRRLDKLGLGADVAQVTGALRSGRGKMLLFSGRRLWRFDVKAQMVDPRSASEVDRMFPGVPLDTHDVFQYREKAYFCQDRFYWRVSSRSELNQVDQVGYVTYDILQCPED

Experiments:
[1] = molecular target: legumain (Homo sapiens, UniProt Q99538); assay: IQF substrate hydrolysis kinetics with legumain; settings: substrate 1.46-25 μM, citric acid/Na2HPO4 buffer pH 5.8, 37 °C, mean of at least three, SD <10%
Description: (§1) All kinetic measurements were performed using a Spectra Max Gemini XPS spectrofluorimeter (Molecular Devices) at 37 °C. For the substrates with the new donor acceptor pair, ACC/DNP, the excitation wavelength was 355 nm, and the emission wavelength was 460 nm; for MCA/DNP, the corresponding values were 325 and 420 nm, respectively. The substrate concentrations were varied, and the enzyme concentration was kept constant in each assay; the total reaction volume was 100 μl. Measurements were conducted for 30 min, and only the linear part of the progress curve was used to determine the reaction velocity. The measurements were repeated, and the data presented are the average of at least three measurements. The catalytic parameters kcat and KM were established using GraphPad Prism software to directly fit the initial velocities and initial substrate concentrations to the Michaelis-Menten equation using non-linear regression analysis.
Pro-legumain was auto-activated in buffer containing 100 mM sodium acetate, 1 mM EDTA, and 10 mM DTT at pH 4.5 for 2.5 h at 37 °C[63]. Assays involving legumain were performed in buffer containing 40 mM citric acid, 1 mM EDTA, 120 mM Na2HPO4, and 10 mM DTT at pH 5.8. The enzyme was incubated with the assay buffer for 20 min at 37 °C prior to the substrate addition and the measurement. For legumain, the concentration of substrates containing ACC ranged from 1.46 to 25 μM, and the enzyme concentration was 7.3 nM. The concentration of substrates containing MCA ranged from 1.46 to 25 μM, and the enzyme concentration was 24.5 nM.

[2] = molecular target: MMP2 (Homo sapiens, UniProt P08253); assay: IQF substrate hydrolysis kinetics with MMP2; settings: 0.1 M Tris-HCl, 0.1 M NaCl, 10 mM CaCl2 pH 7.5, 37 °C, mean of at least three, SD <10%
Description: as §1
(§2) The MMP2 proenzyme was activated with 2 mM 4-aminophenylmercuric acetate (APMA) in 50 mM Tris buffer containing 150 mM NaCl and 5 mM CaCl2 for 1 h at 25 °C[60]. The MMP9 proenzyme was activated autocatalytically for 2 h in assay buffer at 25 °C[58]. Assays involving MMP2 and MMP9 were performed in a buffer containing 0.1 M Tris-HCl, 0.1 M NaCl, and 10 mM CaCl2 at pH 7.5[58][60]. Enzymes were incubated with assay buffer for 40 min at 37 °C prior to the substrate addition and the measurement. For MMP2, the concentration of substrates containing ACC ranged from 3.5 to 60 μM, and the enzyme concentration was 1.25 nM. The concentration of substrates containing MCA was ranged from 5.85 to 100 μM, and the enzyme concentration was 3.8 nM. For MMP9, the concentration of substrates containing ACC ranged from 1.8 to 30 μM, and the enzyme concentration was 2.4 nM. The concentration of substrates containing MCA ranged from 3.0 to 50 μM, and the enzyme concentration was 7.2 nM.

[3] = molecular target: MMP9 (Homo sapiens, UniProt P14780); assay: IQF substrate hydrolysis kinetics with MMP9; settings: 0.1 M Tris-HCl, 0.1 M NaCl, 10 mM CaCl2 pH 7.5, 37 °C, mean of at least three, SD <10%
Description: as §1, §2

[4] = ACC/Lys(DNP) substrate, legumain 7.3 nM, ex 355/em 460 nm
[5] = ACC/Lys(DNP) substrate, MMP2 1.25 nM, substrate 3.5-60 μM, ex 355/em 460 nm
[6] = ACC/Lys(DNP) substrate, MMP9 2.4 nM, substrate 1.8-30 μM, ex 355/em 460 nm
[7] = MCA/Lys(DNP) substrate, legumain 24.5 nM, ex 325/em 420 nm
[8] = MCA/Lys(DNP) substrate, MMP2 3.8 nM, substrate 5.85-100 μM, ex 325/em 420 nm
[9] = MCA/Lys(DNP) substrate, MMP9 7.2 nM, substrate 3.0-50 μM, ex 325/em 420 nm

CC(C)[C@H](NC(=O)[C@H](CCCCN)NC(=O)[C@H](CC(N)=O)NC(=O)[C@@H](NC(=O)[C@@H]1CCCN1C(=O)CNC(=O)Cc1cc(=O)oc2cc(N)ccc12)[C@@H](C)O)C(=O)N[C@@H](CCCCNc1ccc([N+](=O)[O-])cc1[N+](=O)[O-])C(=O)N[C@@H](CCCNC(=N)N)C(N)=O
Km [1, 4]: 9.13 µM | kcat [1, 4]: 1.35 s⁻¹ | kcat/KM [1, 4]: 149 000 M^−1s^−1

CC(C)C[C@H](NC(=O)CNC(=O)[C@H](CC(C)C)NC(=O)[C@@H]1CCCN1C(=O)CNC(=O)Cc1cc(=O)oc2cc(N)ccc12)C(=O)N[C@@H](CCCCNc1ccc([N+](=O)[O-])cc1[N+](=O)[O-])C(=O)N[C@@H](C)C(=O)N[C@@H](CCCNC(=N)N)C(N)=O
Km [2, 5]: 15.4 µM | kcat [2, 5]: 4.26 s⁻¹ | kcat/KM [2, 5]: 278 800 M^−1s^−1 | Km [3, 6]: 7.81 µM | kcat [3, 6]: 0.69 s⁻¹ | kcat/KM [3, 6]: 89 200 M^−1s^−1

COc1ccc2c(CC(=O)NCC(=O)N3CCC[C@H]3C(=O)N[C@H](C(=O)N[C@@H](CC(N)=O)C(=O)N[C@@H](CCCCN)C(=O)N[C@H](C(=O)N[C@@H](CCCCNc3ccc([N+](=O)[O-])cc3[N+](=O)[O-])C(=O)N[C@@H](CCCNC(=N)N)C(N)=O)C(C)C)[C@@H](C)O)cc(=O)oc2c1
Km [1, 7]: 8.11 µM | kcat [1, 7]: 1.09 s⁻¹ | kcat/KM [1, 7]: 139 000 M^−1s^−1

COc1ccc2c(CC(=O)NCC(=O)N3CCC[C@H]3C(=O)N[C@@H](CC(C)C)C(=O)NCC(=O)N[C@@H](CC(C)C)C(=O)N[C@@H](CCCCNc3ccc([N+](=O)[O-])cc3[N+](=O)[O-])C(=O)N[C@@H](C)C(=O)N[C@@H](CCCNC(=N)N)C(N)=O)cc(=O)oc2c1
Km [2, 8]: 35.1 µM | kcat [2, 8]: 6.24 s⁻¹ | kcat/KM [2, 8]: 179 900 M^−1s^−1 | Km [3, 9]: 11.7 µM | kcat [3, 9]: 0.958 s⁻¹ | kcat/KM [3, 9]: 82 400 M^−1s^−1
